Experimental data: patent publication US10738031B2, “N-[(heteroaryloxy)propanyl]heteroaryl carboxamides as antagonists of orexin subtype 1 receptor activity” (Boehringer Ingelheim International GmbH, priority 2016, dated 2020)

Chains of the proteins cited; added tags and fusions are not shown.
UniProt O43613, whole entry, species assumed: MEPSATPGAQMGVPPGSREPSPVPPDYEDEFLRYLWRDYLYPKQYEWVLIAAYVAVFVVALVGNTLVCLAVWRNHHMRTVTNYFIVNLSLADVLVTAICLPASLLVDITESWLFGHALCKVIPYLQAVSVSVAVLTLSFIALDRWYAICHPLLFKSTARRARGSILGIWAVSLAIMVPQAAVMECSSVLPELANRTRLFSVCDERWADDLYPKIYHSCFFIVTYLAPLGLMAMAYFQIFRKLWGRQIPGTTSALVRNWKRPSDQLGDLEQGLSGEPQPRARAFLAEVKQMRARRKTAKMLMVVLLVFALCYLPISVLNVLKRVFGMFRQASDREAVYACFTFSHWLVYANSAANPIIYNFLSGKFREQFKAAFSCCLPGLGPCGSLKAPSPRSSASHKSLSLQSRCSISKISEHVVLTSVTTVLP

Molecular target: OX1R (Homo sapiens, UniProt O43613)
Assay: OX1R assay of WO2013/187466 (fluorescence, intracellular Ca2+)
Assay type: cell-based
Settings: from IC50 values described in WO2013/187466

## CCN(C(=O)c1cc(F)ccc1-c1ncccn1)[C@@H](C)Cn1nnc(-c2ccc(F)cc2)n1 [Example 70 in WO2013/187466]
  OX2R IC50/OX1R IC50: 411
